Consider 1 substance from US20210162009A1, “CHEMOKINE VARIANTS AS IMMUNE STIMULANTS” (THE MEDICAL COLLEGE OF WISCONSIN, INC., priority 2017, published 2021).

Chains of the proteins cited; added tags and fusions are not shown. Residues count along the entry.
UniProt P48061, 22-89 limits assumed: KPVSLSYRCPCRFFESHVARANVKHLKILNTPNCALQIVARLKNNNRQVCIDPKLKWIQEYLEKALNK

The target of this assay is wild-type CXCL12 (Homo sapiens (Human)) (UniProt P48061). Briefly: translational diffusion measurements (Ds versus concentration, non-linear fit), 20 mM sodium phosphate pH 7.4; self-association.

In general, Kd refers to the concentration at which binding is half-saturated. The low end stands for a tighter complex, the high end for a looser complex. Take “wild-type CXCL12 (from UniProt P48061 22-89) (ligand; other documents disagree on this pair)”: the Kd came to 120 µM.
